Data set [1] concerns the target T1, porcine DPP-IV (Sus scrofa, UniProt P22411). In words: DPP-IV inhibition assay with Gly-Pro-pNA substrate. The class given is biochemical. The following applies: for IC50: porcine DPP-IV, Gly-Pro-pNA 0.200 mM, 37°C, n = 3, read-out: Experimental DPP-IV IC50. Set-up: purchased Sigma Aldrich (Dublin, Ireland). The procedure:
Peptides were dispersed in HPLC grade water at 50 and 500 µM (final concentration). The DPP-IV inhibition assay was carried out in triplicate as outlined by Nongonierma and FitzGerald ([18]). Briefly, samples (25 μL) were mixed with Gly-Pro-pNA (final concentration 0.200 mM) and DPP-IV (final concentration 0.0025 U mL^−1) in a 96-well microplate (Sarstedt, Dublin, Ireland). The microplate was incubated at 37°C for 60 min in a microplate reader (Biotek Synergy HT, Winooski, VT, USA) and absorbance was monitored at 405 nm.
Dose–response curves were determined for peptides displaying a percentage of inhibition > 50% at 500 µM. Peptides were diluted in HPLC water at concentrations ranging from 0.37 to 500 µM (final concentration). The DPP-IV IC50 values were determined by plotting the percentage inhibition as a function of the test compound concentration. Each analysis was carried out in triplicate (n = 3).

The chains behind the UniProt entries cited, without tags or fusion partners. Where a name states a change or a piece, a line headed by the entry shows the natural chain unless it says otherwise.
UniProt P22411: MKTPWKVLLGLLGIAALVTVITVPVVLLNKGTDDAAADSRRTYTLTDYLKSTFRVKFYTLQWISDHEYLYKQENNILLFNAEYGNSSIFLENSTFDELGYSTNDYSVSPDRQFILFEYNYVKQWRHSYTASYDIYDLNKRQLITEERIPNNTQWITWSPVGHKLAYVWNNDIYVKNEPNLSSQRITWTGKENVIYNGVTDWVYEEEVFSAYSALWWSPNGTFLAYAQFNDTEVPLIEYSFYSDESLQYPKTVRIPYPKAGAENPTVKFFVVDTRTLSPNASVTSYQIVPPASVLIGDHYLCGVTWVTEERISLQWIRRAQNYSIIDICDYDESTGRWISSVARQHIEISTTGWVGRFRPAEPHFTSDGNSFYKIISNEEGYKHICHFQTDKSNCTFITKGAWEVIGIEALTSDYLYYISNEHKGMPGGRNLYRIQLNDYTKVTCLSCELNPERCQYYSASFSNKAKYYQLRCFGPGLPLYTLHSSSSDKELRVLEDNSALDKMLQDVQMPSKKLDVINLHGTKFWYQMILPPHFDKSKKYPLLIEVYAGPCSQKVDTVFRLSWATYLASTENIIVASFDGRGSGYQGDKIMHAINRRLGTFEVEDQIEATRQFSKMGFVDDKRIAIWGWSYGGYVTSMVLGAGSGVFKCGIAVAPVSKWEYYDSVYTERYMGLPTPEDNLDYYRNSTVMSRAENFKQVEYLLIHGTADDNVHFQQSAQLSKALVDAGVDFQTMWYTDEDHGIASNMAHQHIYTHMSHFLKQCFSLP

Data set [2] concerns the target T1, porcine DPP-IV. The data set is described as follows: Stability of peptides to hydrolysis by DPP-IV (LC-MS/MS). The following applies: for Hydrolysis by DPP-IV (stability), in words: 30 min incubation with DPP-IV; for Peptide hydrolyzed by DPP-IV: peptide at 1/4 of IC50, 30 min at 37°C, Tris-HCl buffer pH 8.0.

In general, inhibition refers to how much of the control response was suppressed. By IC50 is commonly meant the concentration that gives 50% inhibition. As for `CC[C@H](C)[C@H](NC(=O)[C@@H]1CCCN1C(=O)[C@@H](N)Cc1ccccc1)C(=O)O` [FPI, Phe-Pro-Ile], in data set [1] (peptide at 500 µM), the inhibition at 500 µM came out at 90.1 ± 1.8%. The IC50 in data set [1] turned out to be 45.2 ± 5.3 µM. Besides, in data set [2], the “Hydrolysis by DPP-IV (stability), in words” value was “not hydrolyzed by DPP-IV” and the “Peptide hydrolyzed by DPP-IV” value is listed as “NO”.
With `CC[C@H](C)[C@H](NC(=O)[C@@H]1CCCN1C(=O)[C@@H](N)Cc1c[nH]c2ccccc12)C(=O)O` [WPI, Trp-Pro-Ile], the IC50 in data set [1] worked out at 133 ± 14.7 µM. Besides, in data set [2], the “Hydrolysis by DPP-IV (stability), in words” value is reported as “not hydrolyzed by DPP-IV” and the “Peptide hydrolyzed by DPP-IV” value is listed as “NO”.
For the molecule `CC[C@H](C)[C@H](N)C(=O)N1CCC[C@H]1C(=O)N[C@H](C(=O)O)[C@@H](C)CC` [IPI, Ile-Pro-Ile], the IC50 in data set [1] amounted to 3.9 ± 1 µM.

(Values after publication PMC6010526, “In Silico Approaches Applied to the Study of Peptide Analogs of Ile-Pro-Ile in Relation to Their Dipeptidyl Peptidase IV Inhibitory Properties” (Frontiers in Endocrinology, 2018).)
